# According to ChEMBL document CHEMBL1133858, “BMS-196085: a potent and selective full agonist of the human beta(3) adrenergic receptor” (Bioorg Med Chem Lett, 2001):
# Assays:
# ADRB2+ADRB3 (+) = experiment: Tested for binding selectivity to beta3 adrenoceptor versus beta2 adrenoceptor
# ADRB1+ADRB3 (+) = experiment: Tested for binding selectivity to beta3 adrenoceptor versus beta-1 adrenoceptor
Compound,Selectivity ratio (ADRB2+ADRB3 (+)),Selectivity ratio (ADRB1+ADRB3 (+))
COC(=O)c1ccc([C@@H](Cc2ccccc2)NC[C@H](O)c2ccc(O)c(NS(C)(=O)=O)c2)cc1,5,42
CS(=O)(=O)Nc1cc([C@@H](O)CN[C@H](Cc2ccccc2)c2ccc(C(N)=O)cc2)ccc1O,8,90
Cc1cc([C@@H](Cc2ccccc2)NC[C@H](O)c2ccc(O)c(NS(C)(=O)=O)c2)ccc1OC(F)F,0.6,6
CS(=O)(=O)Nc1cc([C@@H](O)CNC(Cc2ccccc2)c2ccc(OCc3ccccc3)cc2)ccc1O (some centres not stated),2,58

# The remaining lines, values ahead:
Selectivity ratio (ADRB2+ADRB3 (+)),Selectivity ratio (ADRB1+ADRB3 (+)),Compound
1,11,CS(=O)(=O)Nc1cc(C(O)CNC(Cc2ccccc2)c2ccc(F)cc2)ccc1O (configuration not stated)
13,61,COc1ccc([C@@H](Cc2ccccc2)NC[C@H](O)c2ccc(O)c(NS(C)(=O)=O)c2)c(OC)n1
